Data on one molecule can be found in patent US8795992B2, “Yeast with increased butanol tolerance involving cell wall integrity pathway” (Butamax Advanced Biofuels LLC, priority 2008, dated 2014).

The test system of this test is SLT2p over-producing strain (BY4741 with GAL1 promoter SLT2 ORF plasmid). The test is described as follows: Growth yield of SLT2p over-producing strain in galactose medium with isobutanol. The following applies: SLT2p over-producing strain vs BY4741; 1 wt % isobutanol.

Regarding `CC(C)CO` [isobutanol], the “improvement in growth yield over the parental strain” value is 29%.
